scFv variants of Ab-91 (heavy chain) against a SARS-CoV-2 spike peptide

Source: Engelhart et al. 2022 (doi:10.1038/s41597-022-01779-4), MIT Lincoln Laboratory and A-Alpha Bio; data file from the FLAb repository.

Antigen: PDVDLGDISGINAS, a 14-residue peptide of the SARS-CoV-2 spike HR2 region.

Parent scFv Ab-91: VL joined to VH by the linker GGGGSGGGGSGGGGS. Changes lie in the heavy chain CDRs alone.
VL: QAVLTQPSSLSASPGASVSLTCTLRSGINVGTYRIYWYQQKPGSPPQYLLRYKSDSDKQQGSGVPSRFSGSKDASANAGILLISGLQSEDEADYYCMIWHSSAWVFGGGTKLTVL
VH: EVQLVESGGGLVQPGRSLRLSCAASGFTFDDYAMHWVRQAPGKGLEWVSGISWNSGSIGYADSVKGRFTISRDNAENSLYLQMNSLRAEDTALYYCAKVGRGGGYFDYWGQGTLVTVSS

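Library AAYL51 holds single substitutions and randomly drawn double and triple substitutions in the CDRs. The scFvs were displayed on barcoded MATa yeast, the peptide on MATalpha yeast. Binding brings cells together so that they mate, and sequencing counts the barcode pairs among the diploids. Scores were corrected for input abundance and mapped to Kd with protein pairs of known affinity run in the same pool. There are three technical replicates.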

Variants are written as CDR1, CDR2 and CDR3 of the heavy chain (limits as in the source). Parent: GFTFDDYAMH, GISWNSGSIGYADSVK, VGRGGGYFDY.
This list gathers variants with a substitution at F106 (VH, numbered from residue 1).
The Kd shown is the geometric mean over detected replicates; a lower Kd is a better binder.
"nd" means that the variant was in the library but no mating with the target was seen in any replicate; the authors take this as a sign of poor binding, and no number exists.
Background: pairings of library AAYL51 with three empty control strains gave a value in 21% of cases (median 34 µM, 5th percentile 1.8 µM). Values in that range, when seen in few replicates, are hard to tell from nonspecific mating.

GFTFDDYAMH, GISWQSGSIGYADSVK, VGRGGGYDIY: 710 nM (3 of 3 replicates).
GFTFDDYAMH, GISWDSGSIGYADSVK, VGRGGGYCDC: 2.4 µM (1 of 3 replicates).
GFTFDDYFMH, GISWNYGSIGYADSVK, VGRGGGYSDY: nd (0 of 3 replicates).
GFTFDDYAQH, GISWNSGSIGVADSVK, VGRGGGYYDY: 35 µM (1 of 3 replicates).
GFTFDDYAMH, GMSWNSGSIGYADSVL, VGRGGGYLDY: nd (0 of 3 replicates).
GFTYDDYAMH, GISWNSKSIGYADSVK, VGRGGGYLDY: 170 µM (2 of 3 replicates).
GFTFDDYAMH, GISWNVGSIGYADSVK, DGRGGGYVDY: nd (0 of 3 replicates).
GFTFDDYAMH, GASWNSGSIGYADSVH, VGRGGGYTDY: 65 µM (1 of 3 replicates).
GFTFDDYAMH, GISWNSGSIGGADSVK, GGRGGGYNDY: 520 µM (1 of 3 replicates).
GFTFDDYAMH, GISWNSGSIWYADWVK, VGRGGGYLDY: 12 µM (1 of 3 replicates).
GFTFDDYAMP, GIMWNSGSIGYADSVK, VGRGGGYPDY: nd (0 of 3 replicates).
GQTFDDYAMH, GISWNSGSIGYWDSVK, VGRGGGYRDY: nd (0 of 3 replicates).
GFTFDDYAMH, GISWNLGSIGYADSVK, VGRGGGYDDY: nd (0 of 3 replicates).
GFTFDDYAWH, GISRNSGSIGYADSVK, VGRGGGYQDY: 23 µM (1 of 3 replicates).
GFTFDDYAMH, GISWNSGSIGYADSVK, WGRFGGYSDY: nd (0 of 3 replicates).
GFTFDDYAMH, GPSWNSGSIGYLDSVK, VGRGGGYVDY: 33 µM (1 of 3 replicates).
GFTFDDYAMH, YISWNSGSIGYADSVK, VGRGGGYNDW: nd (0 of 3 replicates).
GFTFDDYAMH, GISWNGGSLGYADSVK, VGRGGGYTDY: 630 nM (3 of 3 replicates).
GFTFDDEAMH, GISKNSGSIGYADSVK, VGRGGGYVDY: nd (0 of 3 replicates).
GFTFDDYAWH, GISWNSGSIGHADSVK, VGRGGGYRDY: nd (0 of 3 replicates).
GFTFDDYAMH, GISWNSGSIGYADSVK, VGRGGGYYDY: 190 nM (3 of 3 replicates).
GFTFDDYEMH, GISPNSGSIGYADSVK, VGRGGGYPDY: 680 nM (1 of 3 replicates).
GFTFDDYAMH, GISWNSGSIGYADSVK, VGRGKDYWDY: nd (0 of 3 replicates).
GFTFDDYAMH, GISHNSGSIGYADSVK, VGTGGGYGDY: 400 nM (3 of 3 replicates).
GNTFDDYAMH, GISWNSGSIGYADSVK, VGRGGGYSDY: 19 µM (2 of 3 replicates).
GSTFDDYAMH, GISWNSKSIGYADSVK, VGRGGGYMDY: nd (0 of 3 replicates).
GFTFDPYAMH, GISWNSGSIDYADSVK, VGRGGGYNDY: 120 µM (3 of 3 replicates).
GFTFDDYAMH, GISWNSDSIGYADSVK, VGWGGGYRDY: 82 µM (3 of 3 replicates).
GFTFDDYAMH, GIEWNSGSIGYADSVK, VGRGGGTKDY: nd (0 of 3 replicates).
GFTFDDYAWH, GISWNSGSIGYADSVK, VGRGGGYQKY: nd (0 of 3 replicates).
GFTFDDYAMH, GISWNSGSIGYADSVT, VGRGGGYIDY: 48 µM (1 of 3 replicates).
GFTFDRYAMH, GISWNSGSIGYADSVK, VGRGGGYWDY: 21 nM (3 of 3 replicates).
GFTFDDYAMH, GISWNSGSIGYWDSVK, VGRGGGYVDY: 210 µM (1 of 3 replicates).
GFTFDDYAMH, GISWNSGSIGYADSVH, VGRGGGYGDY: 100 µM (2 of 3 replicates).
GFTFDCYAMH, HISWNSGSIGYADSVK, VGRGGGYRDY: 22 µM (1 of 3 replicates).
GFTFDDYAMH, EISWNSGSIMYADSVK, VGRGGGYTDY: nd (0 of 3 replicates).
GFTFDDYAMH, GISWNSASIGYADSVK, CGRGGGYMDY: 51 µM (1 of 3 replicates).
GFTFDDYAMH, GASWNCGSIGYADSVK, VGRGGGYEDY: nd (0 of 3 replicates).
GFTFDDYLMH, GISWNSGSILYADSVK, VGRGGGYMDY: 180 µM (3 of 3 replicates).

The last 4 entries again:

GFTFDDYAMH, EISWNSGSIMYADSVK, VGRGGGYTDY: nd (0 of 3 replicates).
GFTFDDYAMH, GISWNSASIGYADSVK, CGRGGGYMDY: 51 µM (1 of 3 replicates).
GFTFDDYAMH, GASWNCGSIGYADSVK, VGRGGGYEDY: nd (0 of 3 replicates).
GFTFDDYLMH, GISWNSGSILYADSVK, VGRGGGYMDY: 180 µM (3 of 3 replicates).